## Antibody variant affinities, Ab-14 heavy chain, assay 1

From the AlphaSeq antibody data of Engelhart et al. 2022 (doi:10.1038/s41597-022-01779-4), copy in the FLAb collection.

All variants were tested on one target, the spike HR2 peptide PDVDLGDISGINAS (SARS-CoV-2).

Each scFv is VH, a (GGGGS)3 linker, VL, as in the parent Ab-14, and differs from it in the CDRs of the heavy chain only.
VH: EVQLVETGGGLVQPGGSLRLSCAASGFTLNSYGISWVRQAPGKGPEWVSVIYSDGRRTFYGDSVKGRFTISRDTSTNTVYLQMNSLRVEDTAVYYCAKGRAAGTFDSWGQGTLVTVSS
VL: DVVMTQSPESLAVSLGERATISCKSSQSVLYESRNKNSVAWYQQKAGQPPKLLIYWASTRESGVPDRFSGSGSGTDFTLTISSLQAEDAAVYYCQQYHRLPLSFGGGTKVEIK

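Phage display of a naive human antibody library on the peptide gave the parent. Library AAYL49 holds single substitutions and randomly drawn double and triple substitutions in the CDRs. The assay is AlphaSeq: two haploid yeast populations carry antibody and antigen on their surface. The frequency of each diploid, read from paired DNA barcodes, reflects how well the two displayed proteins bind. Read counts were normalised to the haploid input and turned into Kd by a linear fit to BCL2-family pairs of known affinity, for each replicate. There are three technical replicates.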

The parent's heavy chain CDRs are GFTLNSYGIS, VIYSDGRRTFYGDSVK, GRAAGTFDS; each variant's own CDRs replace them letter for letter. Kd is apparent (estimated from mating counts) and averaged on the log scale over replicates with a signal. Smaller is tighter. "not detected" marks a missing value. The strain was present, yet no cells mated with the target were sequenced in any replicate, which points to weak or no binding. Three control strains display no target. For library AAYL49, 15% of the pairings with them gave a signal, with a median of 11 µM and one signal in twenty below 680 nM, so weak values seen in few replicates may be background.

CDR-H1 | CDR-H2 | CDR-H3 | Kd (apparent) | detected
GFTLNSYGIS | VIYVDGRRTFDGDSVK | GRAAFTFDS | 400 µM | 2/3
GFTLNSYGIS | VIYSDQRRTFYGSSVK | GRAANTFDS | not detected | 0/3
GFTLNSYGIS | VIYSDCRRTCYGDSVK | GRAARTFDS | not detected | 0/3
GFTLNSYGIS | LIYSDGRRTFYGDSVK | GRAAGTFWS | 18 µM | 1/3
GFTLNSYGIS | VISSDGRRTFYGDSVF | GRAAGTFDS | not detected | 0/3
GFTYNSYGIS | VIYSIGRRTFYGQSVK | GRAAGTFDS | 77 µM | 2/3
GFTLNSYGIH | VIYSDGRNTFYGDSVK | GRAAGTFHS | not detected | 0/3
GFTLNSKRIS | VIYSDGRRTFYGDSVK | GRAAGTFAS | not detected | 0/3
GFTLNSYGPS | VIYSDGERTFYGDSVK | GRADGTFDS | 15 µM | 1/3
GFTLNSYGMK | VIYSDGRRTFYGDSVK | GREAGTFDS | not detected | 0/3
GFTLNSYEIS | VIYSDGRTTFYGDSVQ | GRAAGTFDS | not detected | 0/3
GFTLVSYGIS | VIYSDGRRTFYGDHVK | GRAGGTFDS | not detected | 0/3
GFTQNSYGIS | VIYSDGRRTFYHDSVK | GRAAGTFDS | not detected | 0/3
GFTLNSYGIS | VIYSQGRRHFYGDSVQ | GRAAGTFDS | not detected | 0/3
GFTLTSYGIS | AIYSDGRRTFYGDSVK | GRAAGTFDS | 9.7 µM | 1/3
GFTLNSYGIS | VIESDGRRTFYGLSVK | GRAPGTFDS | 1.1 µM | 1/3
GFTLYSYGIS | VIYSDGRQTFYGDSVK | GKAAGTFDS | 9.9 µM | 1/3
GFTLNSYGIS | VIYSDGRRWFFGDFVK | GRAAGTFDS | 200 µM | 1/3
GFTLNSYGIS | VIYSDGRRTFYGDSGK | GRAAGTDWS | not detected | 0/3
GFTLNSYGIS | VIASDGRRIFYGDSVK | GRKAGTFDS | not detected | 0/3
GFTANSYGIS | VIYSDGNRSFYGDSVK | GRAAGTFDS | not detected | 0/3
GFTLNSYGIS | VIYSDGRRFFYGDSVK | GRAAGTMDS | 2.4 µM | 2/3
GFFLNSYGIS | VIYSDGRRMFYGDSVK | DRAAGTFDS | not detected | 0/3
GFTLNSYGIS | VIYSDGRRTFYGTSVK | GRAAGTYDS | not detected | 0/3
GFTLTSYGIS | VIYSDGRRTFYGDSVK | GRAADTFDS | 17 nM | 3/3
GFTLNSYGIW | VIYRDVRRTFYGDSVK | GRAAGTFDS | 23 µM | 1/3
GFTLNSYGIS | VINWDGRRTFYGDSWK | GRAAGTFDS | not detected | 0/3
GFTLNSYGIL | VQMSDGRRTFYGDSVK | GRAAGTFDS | not detected | 0/3
GFTLNSYGIS | VIYNDGRRTFYHDSVK | GRAAGTFDS | 2.4 µM | 2/3
GFTWNSYGIS | VIYSMGRRTFEGDSVK | GRAAGTFDS | not detected | 0/3
GFTLNSYGIS | VIYSDNRRTFYGDSVK | GMAAGTFDS | 200 µM | 2/3
GFTLNPYGIS | QIYSDGRRTFYRDSVK | GRAAGTFDS | 35 µM | 1/3
GFDLNSYGIS | VYYSDGRRTFYGDSVK | GRAAGTFDL | 1.2 µM | 2/3
GFTLNSAGIS | VILSDGRRTFYGDSVK | GRAAGTFDS | 9.0 µM | 1/3
GFTLMSYGIS | VIDSDGRRTFYGDQVK | GRAAGTFDS | not detected | 0/3
GFTYNSYGIS | VIYSDGRRTFYGDSVK | GTAAGLFDS | not detected | 0/3
GFTLNSQNIS | VIYSDGRRTFPGDSVK | GRAAGTFDS | not detected | 0/3
GFTLDSYGIS | VHYSDGRRTFYGDSVK | GRAAGNFDS | not detected | 0/3
GRTLNSYGIS | VIYNDGRRTFYGDSVK | GMAAGTFDS | not detected | 0/3
GFALNSYGIS | VIYSDGRRTFYGDSAS | GRAAGTFDS | not detected | 0/3
GFTLNSYGIS | VIYFDGERTFYGDSVK | GRAAGTMDS | 38 µM | 1/3
GFTLNSYGIS | VIESDGRRTCYEDSVK | GRAAGTFDS | 20 µM | 2/3
GFTLNSYGIS | VFYSNGRRTFYGDSVK | GRAPGTFDS | not detected | 0/3
GFTLRSYGIS | VIYSDGRRTFYGDSVK | GLAAGTGDS | 38 nM | 3/3
GFTLNSYGSS | VIYSDGRRTFYGDSVK | QRAAGTYDS | not detected | 0/3
GFWLNSYGIS | VIYSDGRRTFYGDSVK | WRAAGTFES | not detected | 0/3
GFTLLSYGIS | VIYSDGRRTFYGDSVF | GRAAGTFDS | 120 nM | 3/3
GFTLNNYGIS | VIYSDGRRTFYGDSVK | GRAAGTFDH | not detected | 0/3
GFTLNSYGIS | VIYSDGRRTFYGDSVK | GRATGTFPS | not detected | 0/3
GFTLNSYGIS | VIYSDGRRTFYGDTVW | GRWAGTFDS | 240 nM | 3/3
GFTLNSYGIS | VIYSKGSRTFYGDSVK | YRAAGTFDS | not detected | 0/3
GFTLASHGIS | VIESDGRRTFYGDSVK | GRAAGTFDS | 20 µM | 3/3
GFTLNSYGIS | VIYSDGHRTFYGDDVK | GRAAGTGDS | 24 nM | 3/3
GFTLNMYGIS | VQYSDGRRTFYGDSVR | GRAAGTFDS | 1.9 µM | 2/3
GHTFNSYGIS | VIYSDGRRTFYGDSVV | GRAAGTFDS | 5.1 µM | 1/3
GFHLNSYGIS | VHYSDGRRTFYWDSVK | GRAAGTFDS | not detected | 0/3
GFTLNSYGIH | VIYSDGYRTFYGDSVK | GRAAGTFDS | 73 nM | 3/3
GFTLNSEGIS | VIYSMGRRTSYGDSVK | GRAAGTFDS | 36 µM | 1/3
GFTLNTYGIS | VIYSDGRRQFYGDSVK | GRKAGTFDS | 410 nM | 2/3
GFDLNSYGIS | VWYFDGRRTFYGDSVK | GRAAGTFDS | 320 µM | 2/3
GFRLNSYGIS | VIASDGRRTFYGLSVK | GRAAGTFDS | not detected | 0/3
GFTLNSYGIS | VIDSTLRRTFYGDSVK | GRAAGTFDS | not detected | 0/3
GFTLNAYGIR | VIYSDGRRTFYGDSVK | RRAAGTFDS | 9.7 µM | 1/3
GFTLNSYGNS | VIYSDGRRTFYGDSVK | GRAAGTSMS | not detected | 0/3
GFTLNSYGIS | VIYSDGRRTFYGDSNK | GCAAGTFDL | 270 µM | 3/3
GFRLNSYGIS | VIYSDGRRDFYGDSVK | GEAAGTFDS | 72 nM | 3/3
GSTLNSYGIS | VIYSDGRPTFPGDSVK | GRAAGTFDS | 16 µM | 2/3
GFTLNSYGIS | VIYEDGRRTWYGDSDK | GRAAGTFDS | 1.2 µM | 1/3
GFTLNSYGIS | VIYSDGRRTMYGDSDN | GRAAGTFDS | not detected | 0/3
GFTLNSYGIS | VIYSDGRRTFYGDSWK | NRAAGTFAS | not detected | 0/3
GFTLNSYGIY | VITSDGRRTFYGDLVK | GRAAGTFDS | not detected | 0/3
RFTLNSYGIS | VIYSDGRRTFHHDSVK | GRAAGTFDS | 1.7 µM | 3/3
GFTLNSYGIS | VIYSRGRRTFYGDSVK | GSAAGTHDS | 760 µM | 1/3
GFTLNSYGIS | VIYSDGRDTFYGDSVK | FRAAWTFDS | not detected | 0/3
GFTLNSYGKS | VIYSDGARTFYGDSVK | DRAAGTFDS | 440 nM | 1/3
GFTLNSYGIS | VIYSDYRRTSYGDSNK | GRAAGTFDS | not detected | 0/3

The closing 5 entries, repeated:

CDR-H1,CDR-H2,CDR-H3,Kd (apparent),detected
RFTLNSYGIS,VIYSDGRRTFHHDSVK,GRAAGTFDS,1.7 µM,3/3
GFTLNSYGIS,VIYSRGRRTFYGDSVK,GSAAGTHDS,760 µM,1/3
GFTLNSYGIS,VIYSDGRDTFYGDSVK,FRAAWTFDS,not detected,0/3
GFTLNSYGKS,VIYSDGARTFYGDSVK,DRAAGTFDS,440 nM,1/3
GFTLNSYGIS,VIYSDYRRTSYGDSNK,GRAAGTFDS,not detected,0/3

Parent in this assay: reference entry 4.4 nM, copy in this library 13 µM (one replicate of three).